The values that follow are results of earlier work, collected in patent US8071641B2, “Treating or preventing diabetes with cannabidiol” (Yissum Research Development Company of the Hebrew …, priority 2004, dated 2011).

Amino acid sequences for entries named in this document (tags omitted).
UniProt P21554, whole entry: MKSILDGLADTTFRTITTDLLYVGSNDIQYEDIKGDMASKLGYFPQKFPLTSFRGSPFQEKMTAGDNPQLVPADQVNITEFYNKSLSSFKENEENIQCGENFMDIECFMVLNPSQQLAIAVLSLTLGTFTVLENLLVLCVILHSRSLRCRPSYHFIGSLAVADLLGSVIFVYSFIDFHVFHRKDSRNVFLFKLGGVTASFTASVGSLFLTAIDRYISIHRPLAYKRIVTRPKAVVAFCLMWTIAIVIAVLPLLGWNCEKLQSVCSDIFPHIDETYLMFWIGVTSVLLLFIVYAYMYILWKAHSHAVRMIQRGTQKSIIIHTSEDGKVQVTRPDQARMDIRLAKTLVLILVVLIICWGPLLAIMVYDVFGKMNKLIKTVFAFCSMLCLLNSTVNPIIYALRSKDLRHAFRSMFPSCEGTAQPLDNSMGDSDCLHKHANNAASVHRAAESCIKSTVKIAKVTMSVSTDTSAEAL

The series deals with brain receptor CB1 (Homo sapiens, UniProt P21554). Conditions: cited from earlier work.

For `C=C(C)[C@@H]1CCC(C)=C[C@H]1c1c(O)cc(CCCCC)cc1O` [CBD, Cannabidiol], the “binding to brain receptor CB1” value is “does not bind”.
